Laboratory results taken from US8143068B2, “Oxidation resistant indicator molecules” (Sensors for Medicine and Science, Inc., priority 2006, dated 2012).

Test: Stability of indicator gels towards oxidant: 1 mM hydrogen peroxide in PBS at 37° C.
Assay type: physicochemical
Conditions: indicator gel
Method: Several compounds of the present invention were each copolymerized with hydroxyethyl methacrylate (HEMA), acrylic acid and ethylene glycol dimethacrylate (EGDMA) to form water insoluble polymer gels, as in Example 3. Their stability towards oxidant was assessed by subjecting the gels to 1 mM hydrogen peroxide in PBS at 37° C. […] In a further experiment, the fluorescent change (% modulation) from 0 to 20 mM glucose of various indicator gels was measured and the results are shown in FIG. 8.

Substance	t 1/2 [min]
9-[N-[6-(4,4,5,5,-tetramethyl-1,3,2-dioxaborolano)-3-(N,N-dimethylsulfamoyl)benzyl]-N-[3-(methacrylamido)propylamino]methyl]-10-[N-[6-(4,4,5,5,-tetramethyl-1,3,2-dioxaborolano)-3-(N,N-dimethylsulfamoyl)benzyl]-N-[2-(carboxyethyl)amino]methyl]anthracene sodium salt [4-Dimethylsulfonamide]	9
9-[N-[6-(4,4,5,5,-tetramethyl-1,3,2-dioxaborolano)-3-chlorobenzyl]-N-[3-(methacrylamido)propylamino]methyl]-10-[N-[6-(4,4,5,5,-tetramethyl-1,3,2-dioxaborolano)-3-chlorobenzyl]-N-[2-(carboxyethyl)amino]methyl]anthracene sodium salt [Indicator 4-Chloro]	15
